According to ChEMBL document CHEMBL3734689, “Enzyme kinetics and inhibition of histone acetyltransferase KAT8” (Eur J Med Chem, 2015):

Biological target: T1, Histone acetyltransferase KAT8 (Homo sapiens, UniProt Q9H7Z6)
T1 sequence (Q9H7Z6 whole entry): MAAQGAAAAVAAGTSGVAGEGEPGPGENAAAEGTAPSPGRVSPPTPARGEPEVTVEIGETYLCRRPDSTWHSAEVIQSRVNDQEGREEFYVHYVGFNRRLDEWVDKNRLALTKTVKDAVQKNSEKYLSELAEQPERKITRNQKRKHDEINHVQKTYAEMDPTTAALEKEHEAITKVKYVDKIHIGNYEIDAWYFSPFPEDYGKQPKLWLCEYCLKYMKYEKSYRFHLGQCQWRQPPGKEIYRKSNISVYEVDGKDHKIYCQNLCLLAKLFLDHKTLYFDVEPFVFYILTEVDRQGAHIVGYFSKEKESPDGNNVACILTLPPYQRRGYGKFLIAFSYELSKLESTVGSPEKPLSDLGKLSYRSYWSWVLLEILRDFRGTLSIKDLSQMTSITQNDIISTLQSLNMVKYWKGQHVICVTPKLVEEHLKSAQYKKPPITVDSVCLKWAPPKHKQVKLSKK
Test: Inhibition of recombinant N-terminal His6-tagged KAT8 (unknown origin) expressed in Escherichia Coli BL21 DE3 cells assessed as reduction of Co A level using histone H4 substrate after 15 mins by CPM fluorescence assay

Ki: 64 µM
SMILES: CCCCCCCCCCCCCCCc1cccc(O)c1C(=O)O [ANACARDIC ACID]
